Measurements reported in PubChem BioAssay (NCATS).
The list shows a part of the results, in another mix than the full data. Inconclusive results are not listed. Calls of active or inactive are those of the source. Calls follow the shape of the dose curve; as a rule, active = well fitted curve in the direction sought with a large enough effect; inconclusive = small, poorly fitted or top-dose-only effect, or another doubt; inactive = no such curve, though single readings can be large; an effect the other way counts as inactive or inconclusive.

Chains of the proteins cited; added tags and fusions are not shown.
UniProt O15297, whole entry: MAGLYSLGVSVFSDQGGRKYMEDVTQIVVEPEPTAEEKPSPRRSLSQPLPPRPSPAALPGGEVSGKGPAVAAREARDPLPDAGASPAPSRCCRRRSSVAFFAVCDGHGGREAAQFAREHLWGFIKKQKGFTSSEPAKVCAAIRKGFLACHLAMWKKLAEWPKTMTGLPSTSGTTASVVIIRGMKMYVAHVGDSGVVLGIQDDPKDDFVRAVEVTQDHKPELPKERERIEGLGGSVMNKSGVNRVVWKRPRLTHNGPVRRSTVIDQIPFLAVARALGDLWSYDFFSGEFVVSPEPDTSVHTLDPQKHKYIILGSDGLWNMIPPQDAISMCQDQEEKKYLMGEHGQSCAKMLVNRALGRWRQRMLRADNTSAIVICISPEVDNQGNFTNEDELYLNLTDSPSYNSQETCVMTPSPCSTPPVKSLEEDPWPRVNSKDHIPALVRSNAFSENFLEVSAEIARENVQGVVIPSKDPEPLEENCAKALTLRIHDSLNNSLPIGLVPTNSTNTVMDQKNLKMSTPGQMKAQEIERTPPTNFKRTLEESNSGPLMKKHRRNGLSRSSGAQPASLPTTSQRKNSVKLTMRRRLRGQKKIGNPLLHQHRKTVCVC

Test system: not listed separately
Assay: qHTS of pediatric cancer cell lines to identify multiple opportunities for drug repurposing: Primary screen for Rh30 cells (AID 1347107); also: % is scaled to controls: 0 for no effect and ±100 for the full control effect; nearly all actives have a fitted effect of over 75% in size
Conditions: Rh30 rhabdomyosarcoma viability, CellTiter-Glo luminescence, 48 h; at 46 µM (top of the series) unless noted
Summary of the method: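 Viability after 48 h compound treatment at 37C, 500-1,000 cells/well, read as ATP luminescence with CellTiter-Glo. Primary screens used 11-point (MIPE, 0.78 nM-46 µM) or 8-point (NPC, 0.59 nM-46 µM) final concentrations; follow-up screens used 11-point dilutions.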

Row | SMILES | activity change, negative = cytotoxic
1 | O=[N+]([O-])c1cccc([N+](=O)[O-])c1 | inactive: 28.2% [at 92.7 µM]
2 | OCCSCCO | inactive: 20%
3 | Cc1cccc([N+](=O)[O-])c1[N+](=O)[O-] | inactive: 23% [at 92.7 µM]
4 | CCOP(=O)(CC)Oc1ccc([N+](=O)[O-])cc1 (stereo not drawn) | inactive: 3.59%
5 | C/C1=C2N=C(/C=C3N=C(/C(C)=C4\[N-][C@@](C)([C@@H]5N=C1[C@](C)(CCC(=O)NC[C@@H](C)OP(=O)([O-])O[C@H]1[C@@H](O)[C@@H](n6cnc7cc(C)c(C)cc76)O[C@@H]1CO)[C@H]5CC(N)=O)[C@@](C)(CC(N)=O)[C@@H]4CCC(N)=O)[C@@](C)(CC(N)=O)[C@@H]\3CCC(N)=O)C(C)(C)[C@@H]/2CCC(N)=O.[C-]#N.[Co+3] | inactive: 2.38%

Test system: not listed separately
Assay: qHTS of pediatric cancer cell lines to identify multiple opportunities for drug repurposing: Primary screen for Rh41 cells (AID 1347108);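 also: luminescence drop marks cytotoxic hits; nearly all actives have a fitted effect of over 70% in size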
Conditions: Rh41 rhabdomyosarcoma viability, CellTiter-Glo luminescence, 48 h; at 92.7 µM (top of the series) unless noted
Summary of the method: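 500-1,000 cells/well; 5 h pre-incubation 37 °C/5% CO2; compound pinned; 48 h; CellTiter-Glo, 15 min RT; luminescence. MIPE 11-pt from 0.78 nM, NPC 8-pt from 0.59 nM final. Bortezomib 2.3 µM final as positive control.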

Row | SMILES | activity change, negative = cytotoxic
6 | O=[N+]([O-])c1cccc([N+](=O)[O-])c1 | inactive: 33.8%
7 | OCCSCCO | inactive: 26.7% [at 46 µM]
8 | Cc1cccc([N+](=O)[O-])c1[N+](=O)[O-] | inactive: 29.3%
9 | CCOP(=O)(CC)Oc1ccc([N+](=O)[O-])cc1 (stereo not drawn) | inactive: 5.02% [at 46 µM]

Test system: not listed separately
Assay: qHTS to identify inhibitors of the type 1 interferon - major histocompatibility complex class I in skeletal muscle: primary screen against the NCATS Pharmaceutical Collection (AID 1347407);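 also: luminescence of HiBiT knocked into endogenous HLA-B as interferon-induced MHC class I level; % is scaled to controls: 0 for no effect and ±100 for the full control effect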
Conditions: human skeletal muscle cells, IFN-b-induced MHC-I HiBiT luminescence, 24 h; at 45.9 µM (top of the series) unless noted
Excerpt: Assay Submitter (PI): Travis B. Kinder Ph.D. & James Inglese Ph.D.
Assay Development and Screening Technology Laboratory (ADST)
National Center for Advancing Translational Sciences (NCATS), Rockville, MD
National Institute of Health (NIH), Bethesda, Maryland
Idiopathic inflammatory myopathies, collectively referred to as myositis, are a group of rare autoimmune diseases characterized by skeletal muscle inflammation, weakness, and usually accompanied by systemic pathologies of the skin, lungs, or vasculature. Current immunosuppressive therapies and glucocorticoids are often not curative and are accompanied by harsh side effects, especially in children with juvenile myositis. We initiated a drug repurposing and development program to identify more targeted, less toxic therapeutics to treat myositis. Although its cause is not known, muscle from a subset of patients have an abundance of the inflammatory type 1 interferon (IFN) and a down-stream product major histocompatibility complex class I (MHC class I), which are both thought to contribute to damage and weakness. We conducted quantitative high throughput screening on 6,576 compounds (4,679 unique) through a series of cell-based assays to identify those that inhibit the IFN-stimulated expression of MHC class I in muscle precursor cells (myoblasts). The compound identification and evaluation strategy utilized a primary screen with reporter-tagged MHC class I in genome-engineered myoblasts, ATP content counter screen for viability, HLA-ABC immunofluorescence secondary screen, and HLA-B RT-qPCR tertiary screen.
The primary screen utilized CRISPR/Cas9 genome-engineering of immortalized human myoblasts, C25cl48, where a pro-luminescent reporter HiBit was fused to the C-terminus of endogenous MHC class I allele HLA-B*08:01 (HLA-B HiBit myoblasts). HiBit is an 11 amino acid fragment of NanoLuc luminescent reporter (Promega Corporation), and when complexed to the larger LgBit fragment, the reconstituted enzyme produces light in the presence of furimazine substrate (Schwinn et al., 2018). Briefly, HLA-B HiBit myoblasts were plated into 1536-well plates, treated with 4.0 ng/ml human IFN-beta and 2,816 compounds from the NCATS Pharmaceutical Collection (NPC) that contains all drugs approved in the US, EU, and Japan (Huang et al., 2011) in an 8-point, 1:5 titration with a high final concentration of 46 uM. After 24 hrs of treatment, cells were assayed by Nano-Glo HiBiT Lytic Detection System (Promega) and luminescence measured by a ViewLux 1430 Ultra HTS (Perkin Elmer).
Huang R, Southall N, Wang Y, Yasgar A, Shinn P, Jadhav A, Nguyen D-T, Austin CP. 2011. The NCGC pharmaceutical collection: a comprehensive resource of clinically approved drugs enabling repurposing and chemical genomics. Sci Transl Med 3:80ps16. doi:10.1126/scitranslmed.3001862
Schwinn MK, Machleidt T, Zimmerman K, Eggers CT, Dixon AS, Hurst R, Hall MP, Encell LP, Binkowski BF, Wood K V. 2018. CRISPR-Mediated Tagging of Endogenous Proteins with a Luminescent Peptide. ACS Chem Biol 13:467-474. doi:10.1021/acschembio.7b00549
PROTOCOL TABLE (as described by Inglese et al., 2007)
SEQUENCE No. (e.g., 1, 2, 3, etc.); […] (e.g., Cells, Incubation, Reagent, etc.); VALUE; DESCRIPTION
1a; Cells; 5 uL; Use a Multidrop Combi (Thermo Scientific) to seed 350 cells/well into nine Greiner 1536 well white/solid bottom, high base, TC plates in 5 ul/well of iHSKM growth medium (GM) without dexamethasone into columns 1+2. Add metal lids with gas-exchange holes […]

Row | SMILES | activity change, negative = inhibition
10 | O=[N+]([O-])c1cccc([N+](=O)[O-])c1 | inactive: -13.1% [at 92.2 µM]
11 | OCCSCCO | inactive: 0.0184%
12 | Cc1cccc([N+](=O)[O-])c1[N+](=O)[O-] | inactive: -14.1% [at 92.2 µM]
13 | CCOP(=O)(CC)Oc1ccc([N+](=O)[O-])cc1 (stereo not drawn) | inactive: 2.82%
14 | C/C1=C2N=C(/C=C3N=C(/C(C)=C4\[N-][C@@](C)([C@@H]5N=C1[C@](C)(CCC(=O)NC[C@@H](C)OP(=O)([O-])O[C@H]1[C@@H](O)[C@@H](n6cnc7cc(C)c(C)cc76)O[C@@H]1CO)[C@H]5CC(N)=O)[C@@](C)(CC(N)=O)[C@@H]4CCC(N)=O)[C@@](C)(CC(N)=O)[C@@H]\3CCC(N)=O)C(C)(C)[C@@H]/2CCC(N)=O.[C-]#N.[Co+3] | inactive: -28.7%

Biological target: Protein phosphatase 1D (Homo sapiens) (UniProt O15297)
Assay: RapidFire Mass Spectrometry qHTS Assay for Modulators of WT P53-Induced Phosphatase 1 (WIP1) (AID 1347424);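 also: amount of dephosphorylated VEPPL-S-QETFS peptide product formed by WIP1; plate controls were DMSO wells for no effect and GSK830371 inhibitor control at 10 µM for full effect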
Conditions: WIP1 dephosphorylation of phosphopeptide, RapidFire MS; at 63 µM (top of the series) unless noted
Summary of the method: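 10 nM WIP1 preincubated with compounds 1 hr at room temperature in pH 7.5 Tris buffer with 30 mM MgCl2, 1 mM TCEP; 2 uM VEPPL-pS-QETFS phosphopeptide for 5 min, formic acid quench; dephosphorylated product quantified by RapidFire MS against labelled standard.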

Row | SMILES | activity change, negative = inhibition
15 | OCCSCCO | inactive: 0.969%
16 | Cc1cccc([N+](=O)[O-])c1[N+](=O)[O-] | inactive: -12.4% [at 90.1 µM]
17 | CCOP(=O)(CC)Oc1ccc([N+](=O)[O-])cc1 (stereo not drawn) | inactive: -9.78%
18 | C/C1=C2N=C(/C=C3N=C(/C(C)=C4\[N-][C@@](C)([C@@H]5N=C1[C@](C)(CCC(=O)NC[C@@H](C)OP(=O)([O-])O[C@H]1[C@@H](O)[C@@H](n6cnc7cc(C)c(C)cc76)O[C@@H]1CO)[C@H]5CC(N)=O)[C@@](C)(CC(N)=O)[C@@H]4CCC(N)=O)[C@@](C)(CC(N)=O)[C@@H]\3CCC(N)=O)C(C)(C)[C@@H]/2CCC(N)=O.[C-]#N.[Co+3] | inactive: -1.15%
